Measurements: PubChem BioAssay AID1851 (National Center for Advancing Translational Sciences (NCATS), 2009)
This list holds what a sample rich in hits left over. Inconclusive results are not listed. The source made the active and inactive calls. Calls follow the shape of the dose curve; as a rule, active = well fitted curve in the direction sought with a large enough effect; inconclusive = small, poorly fitted or top-dose-only effect, or effect the other way; inactive = no such curve, though single readings can be large or run the other way.

The chains behind the UniProt entries cited, without tags or fusion partners.
UniProt P33261, whole entry, looked up: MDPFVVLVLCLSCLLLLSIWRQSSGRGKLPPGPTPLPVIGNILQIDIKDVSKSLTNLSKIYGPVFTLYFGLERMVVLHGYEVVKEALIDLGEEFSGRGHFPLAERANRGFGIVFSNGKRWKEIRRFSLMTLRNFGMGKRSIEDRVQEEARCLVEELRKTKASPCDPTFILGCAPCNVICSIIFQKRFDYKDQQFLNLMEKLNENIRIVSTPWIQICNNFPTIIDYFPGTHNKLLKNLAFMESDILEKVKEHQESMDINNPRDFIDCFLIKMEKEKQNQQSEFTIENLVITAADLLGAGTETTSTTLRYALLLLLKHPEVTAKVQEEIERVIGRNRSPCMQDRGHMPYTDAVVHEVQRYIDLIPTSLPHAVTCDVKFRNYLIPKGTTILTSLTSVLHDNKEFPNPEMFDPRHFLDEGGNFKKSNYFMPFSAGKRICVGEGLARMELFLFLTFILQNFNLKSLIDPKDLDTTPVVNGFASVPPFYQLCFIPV

Molecular target: Cytochrome P450 2C19 (Homo sapiens) (UniProt P33261)
Assay: Cytochrome panel assay with activity outcomes
Details: recombinant CYP, pro-luciferin dealkylation, luminescence, p450-cyp2c19; at 57.1 µM (top of the series)
% is scaled to controls: 0 for no effect and ±100 for the full control effect.

SMILES | activity, negative = inhibition
CN1CC[C@@]2(CCCN(C(=O)c3csnn3)C2)C1 | inactive: -9.55%
CN1CCCC2(CCN(C(=O)c3csnn3)CC2)C1 | inactive: 37.1%
